Values quoted from earlier work, collected in patent publication US11026985B2, “Methods for removing contaminants from plant-derived pharmaceuticals” (priority 2018, dated 2021).

Conditions: permissible limit in Cannabis, State of Oregon

In the case of `CN(C)NC(=O)CCC(=O)O` [Daminozide], the “Action Level (ppm)” value is given as 1 ppm.
